# System: mdx mouse model of Duchenne Muscular Dystrophy
# Test: Whole Body Plethysmography respiration monitoring, mdx mice, 22 weeks daily s.q. dosing
# Assay type: in vivo
# Conditions: prednisone 1 mg/kg QD s.q., mean ± S.D.
# Description: Animals. Male C57BL/10SnJ, hereafter referred to as wild-type (WT), and male mdx C57B1/10ScSn-Dmdmdx mice were used in the study. All protocols were approved by the University of Michigan (UM) UCUCA and all studies were performed in facilities run by the University of Michigan Unit of Laboratory Animal Medicine. […] Mice were purchased from Jackson Laboratories and aged in UM facilities. All ages given are ±2 weeks. Mice were randomized into groups upon receipt from Jackson Laboratories in order to minimize the need for additional cages. […] All compounds were administered subcutaneously.
# Respiration was monitored using a Buxco Whole Body Plethysmography (WBP) monitoring chambers for mouse Cat. No. PLY4211 (Buxco Research Systems, Wilmington, N.C.) according to the manufacturer's instructions. In this protocol animals are unrestrained and un-anesthetized. […] The mice were monitored for 2 months prior to initiation of treatment to acclimate the mice to the procedure and establish baseline respiratory parameters done with the last weeks reading prior to initiation of dosing. […] Upon initiation of dosing, mice were monitored every 2 weeks. […] Respiration was then monitored for 10 minutes. Each mouse was monitored in the same chamber for each reading throughout the study to minimize variability. […]
# Respiration was monitored every 2 weeks by WBP.
smiles,measurement,value
"C[C@]12C=CC(=O)C=C1CC[C@@H]1[C@@H]2C(=O)C[C@@]2(C)[C@H]1CC[C@]2(O)C(=O)CO [Prednisone, prednisone]",Te (expiratory time),0.149 ± 0.022 s
